The text below walks through data of patent US7851629B2, “Disubstituted phenylpiperidines as modulators of dopamine and serotonin neurotransmission” (NSAB, Filial af Neurosearch Sweden AB, Sverige, priority 2004, dated 2010).

Assay [1] relates to amphetamine pretreated rats. As to conditions: rats pretreated with d-amphetamine 1.5 mg/kg i.p.; test compound s.c.; range covers 95% of fits.
Assay [2] has as its system amphetamine pretreated rats. Kind of assay: animal or person. To be noted: Rattus norvegicus, read-out: ED50 reduction of amphetamine-induced hyper-locomotion.

Consider `COc1cccc(C2(O)CCN(C)CC2)c1OC`, for which the “ED50 reduction of amphetamine-induced hyper-locomotion” value in assay [1] is “inactive”.

For orientation: ED50 means the midpoint of the dose-response relation. On to `CCCN1CCC(c2cccc(OC(F)(F)F)c2F)CC1`, for which the median effective dose (ED50) in assay [2] was 9 µmol/kg.

Regarding `CCCN1CCC(c2cccc(F)c2F)CC1` [drawing 20], the ED50 in assay [2] came to 17.1 µmol/kg.

For `CCCN1CCC(c2cccc(Cl)c2Cl)CC1` [drawing 22], the ED50 in assay [2] was 11 µmol/kg.
